Assays:
[1] = molecular target: Alpha-2B adrenergic receptor (Homo sapiens, UniProt P18089)
[2] = molecular target: Alpha-2A adrenergic receptor (Mus musculus, UniProt Q1HL33)

By UniProt entry, the sequences of proteins in these tests, tags left out.
UniProt P18089, whole entry: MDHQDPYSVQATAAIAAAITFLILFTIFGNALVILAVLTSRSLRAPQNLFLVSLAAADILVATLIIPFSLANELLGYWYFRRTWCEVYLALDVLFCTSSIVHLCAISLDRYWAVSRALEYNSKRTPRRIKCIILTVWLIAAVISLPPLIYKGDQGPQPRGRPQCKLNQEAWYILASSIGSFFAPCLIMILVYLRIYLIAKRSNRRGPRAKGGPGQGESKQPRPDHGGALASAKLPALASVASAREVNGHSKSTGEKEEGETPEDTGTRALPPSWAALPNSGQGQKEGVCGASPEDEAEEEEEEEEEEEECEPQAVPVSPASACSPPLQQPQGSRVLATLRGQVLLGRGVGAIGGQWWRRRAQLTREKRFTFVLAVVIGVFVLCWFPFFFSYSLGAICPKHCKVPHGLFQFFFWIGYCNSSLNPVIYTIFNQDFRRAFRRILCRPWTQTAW
UniProt Q1HL33, whole entry: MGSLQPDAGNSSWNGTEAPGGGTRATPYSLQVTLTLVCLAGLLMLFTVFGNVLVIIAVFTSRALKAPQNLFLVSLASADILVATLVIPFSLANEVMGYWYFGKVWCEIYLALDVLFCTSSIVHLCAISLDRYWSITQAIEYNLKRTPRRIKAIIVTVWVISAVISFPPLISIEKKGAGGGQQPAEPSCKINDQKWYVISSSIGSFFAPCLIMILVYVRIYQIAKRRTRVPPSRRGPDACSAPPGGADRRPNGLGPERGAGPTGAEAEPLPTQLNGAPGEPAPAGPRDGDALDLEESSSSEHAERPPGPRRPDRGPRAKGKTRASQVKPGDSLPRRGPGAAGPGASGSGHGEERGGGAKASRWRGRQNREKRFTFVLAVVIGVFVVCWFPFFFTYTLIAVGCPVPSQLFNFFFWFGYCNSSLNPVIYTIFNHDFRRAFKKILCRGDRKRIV

| Ki [1] [nM] | Ki [2] [nM] | Compound |
| --- | --- | --- |
| 29.5 |  | Nc1cc(Cl)c(N=C2NCCN2)c(Cl)c1 [p-AMINOCLONIDINE] |
|  | 61.7 | COC(=O)[C@@H]1[C@H]2C[C@H]3c4[nH]c5ccccc5c4CCN3C[C@@H]2CC[C@@H]1O [yohimbic acid methyl ester] |

— BindingDB's records for doi:10.1016/s0006-2952(97)00631-x (Roche Bioscience, 1998)
